From ChEMBL document CHEMBL1140736, “High-throughput log P determination by ultraperformance liquid chromatography: a convenient tool for medicinal chemists” (J Med Chem, 2008) come the findings set out here.

A short description of this data set: Partition coefficient, log P of the compound. The class given is physicochemical. The following applies: octanol/water.

By logP is commonly meant a log measure of how a compound divides between an organic and an aqueous phase. Read a low logP as lower lipophilicity. `COCCc1ccc(OCC(O)CNC(C)C)cc1` (stereo unspecified) [METOPROLOL] returned a logP of 1.95.
